This data set can be described thus: in vitro. To be noted: human, HepG2 cells.

A word on the viability: it is a per cent measure of how many cells are alive, often set against a control. Higher therefore signals better survival.

The compound `COc1cc(/C=C2/NC(=O)N(Cc3ccc(C)cc3)C2=O)ccc1OCc1cccc(C(=O)O)c1` gave a viability at 48 h, 200 µM above 80%.
